From ChEMBL document CHEMBL1201862, “PubChem BioAssay data set” (2004)

The chains behind the UniProt entries cited, without tags or fusion partners.
UniProt Q16539, whole entry: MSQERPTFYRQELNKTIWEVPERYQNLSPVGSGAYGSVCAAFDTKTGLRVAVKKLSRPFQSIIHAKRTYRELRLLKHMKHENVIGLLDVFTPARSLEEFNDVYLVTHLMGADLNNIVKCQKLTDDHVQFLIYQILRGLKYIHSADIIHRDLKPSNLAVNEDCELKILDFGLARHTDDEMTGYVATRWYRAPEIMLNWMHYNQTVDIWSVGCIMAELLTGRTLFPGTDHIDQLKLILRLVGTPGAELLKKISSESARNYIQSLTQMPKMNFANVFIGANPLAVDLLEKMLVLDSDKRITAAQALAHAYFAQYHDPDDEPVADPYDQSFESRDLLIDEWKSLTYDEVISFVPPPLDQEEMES

Key:
[1] = target: T1, Phosphomannomutase 2 (Homo sapiens, UniProt O15305); assay: Counter screen SAR assay for PMM2 inhibitors via a fluorescence intensity assay. [Related pubchem assays (depositor defined):AID1545, AID1574]
T1 sequence (O15305 whole entry): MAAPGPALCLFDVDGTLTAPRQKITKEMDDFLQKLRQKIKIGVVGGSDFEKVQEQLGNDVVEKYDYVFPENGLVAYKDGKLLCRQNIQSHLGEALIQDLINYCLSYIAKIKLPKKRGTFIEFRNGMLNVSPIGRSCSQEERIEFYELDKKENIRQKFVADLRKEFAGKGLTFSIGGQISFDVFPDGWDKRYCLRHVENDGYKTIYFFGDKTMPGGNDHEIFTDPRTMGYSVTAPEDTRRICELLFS

[2] = target: Mitogen-activated protein kinase 14 (Homo sapiens, UniProt Q16539); format: functional;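 note: part of a kinome-wide panel, MAPK14 entry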

| SMILES | IC50 [1] | Ki [2] |
| --- | --- | --- |
| O=c1c2ccccc2sn1-c1ccccc1 | active: 36.9 µM |  |
| NC(=O)c1ccc(-c2nc(-c3ccc4c(c3)OCO4)c(-c3ccccn3)[nH]2)cc1 [SB-431542] |  | inactive: > 3.98 µM |

Activity calls are given as the source filed them. The rule behind the calls is not given here.
